Laboratory results as given in patent publication US12226409B2, “Treatment of hepatocellular carcinoma” (Eisai R&D Management Co., Ltd., priority 2017, dated 2025).

System: unresectable hepatocellular carcinoma (HCC)
Test: REFLECT study, efficacy per independent review
Type: in vivo, human
Conditions: mRECIST
Procedure: The efficacy of LENVIMA was evaluated in a randomized, open-label, multicenter, international study (REFLECT; […]) conducted in patients with previously untreated unresectable hepatocellular carcinoma (HCC).

Q: With CNC(=O)c1cc(Oc2ccc(NC(=O)Nc3ccc(Cl)c(C(F)(F)F)c3)cc2)ccn1 [Sorafenib] as the compound, how does the Objective response rate read?
A: 12%
